Source: patent publication US20260384438A1, “PYRROLOPYRIMIDINE CARBOXAMIDES” (published 2026)

By UniProt entry, the sequences of proteins in these tests, tags left out. Where a name states a change or a piece, a line headed by the entry shows the natural chain unless it says otherwise. Residues count along the entry.
UniProt P14416, whole entry: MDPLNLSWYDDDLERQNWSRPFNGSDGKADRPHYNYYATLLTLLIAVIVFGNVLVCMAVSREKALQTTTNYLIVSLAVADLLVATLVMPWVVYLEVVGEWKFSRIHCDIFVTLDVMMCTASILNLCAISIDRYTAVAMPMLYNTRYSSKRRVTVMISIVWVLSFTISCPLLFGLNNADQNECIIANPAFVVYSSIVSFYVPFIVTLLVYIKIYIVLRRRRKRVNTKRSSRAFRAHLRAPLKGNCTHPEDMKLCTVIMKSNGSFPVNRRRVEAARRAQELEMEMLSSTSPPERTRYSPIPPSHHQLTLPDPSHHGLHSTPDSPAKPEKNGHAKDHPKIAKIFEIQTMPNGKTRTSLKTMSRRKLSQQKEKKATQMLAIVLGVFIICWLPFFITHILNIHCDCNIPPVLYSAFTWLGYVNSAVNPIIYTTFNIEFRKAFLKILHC
UniProt P10276, whole entry: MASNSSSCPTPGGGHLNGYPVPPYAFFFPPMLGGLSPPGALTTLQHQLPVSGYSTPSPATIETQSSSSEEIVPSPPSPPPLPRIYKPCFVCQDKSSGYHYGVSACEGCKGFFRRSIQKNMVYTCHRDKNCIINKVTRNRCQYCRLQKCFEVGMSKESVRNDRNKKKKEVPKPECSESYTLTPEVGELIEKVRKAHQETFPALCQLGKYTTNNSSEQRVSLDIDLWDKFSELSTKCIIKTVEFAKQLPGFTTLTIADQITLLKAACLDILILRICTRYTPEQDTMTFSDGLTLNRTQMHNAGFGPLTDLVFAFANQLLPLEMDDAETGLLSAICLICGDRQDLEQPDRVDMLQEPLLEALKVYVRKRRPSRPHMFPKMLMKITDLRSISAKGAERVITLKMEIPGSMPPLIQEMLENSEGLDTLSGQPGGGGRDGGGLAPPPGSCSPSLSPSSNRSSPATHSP
UniProt P21728, whole entry: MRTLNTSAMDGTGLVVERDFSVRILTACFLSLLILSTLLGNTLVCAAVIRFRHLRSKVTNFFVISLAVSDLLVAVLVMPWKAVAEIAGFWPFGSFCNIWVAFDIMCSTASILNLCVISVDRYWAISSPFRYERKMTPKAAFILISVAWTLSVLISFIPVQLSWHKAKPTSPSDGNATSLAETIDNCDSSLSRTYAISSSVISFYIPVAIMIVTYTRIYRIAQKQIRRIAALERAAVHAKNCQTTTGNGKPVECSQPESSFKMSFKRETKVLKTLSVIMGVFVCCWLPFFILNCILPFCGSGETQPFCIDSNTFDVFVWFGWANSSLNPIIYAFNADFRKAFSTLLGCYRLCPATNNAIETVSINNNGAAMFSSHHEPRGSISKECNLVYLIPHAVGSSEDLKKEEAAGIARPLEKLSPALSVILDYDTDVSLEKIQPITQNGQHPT
UniProt P21554, whole entry: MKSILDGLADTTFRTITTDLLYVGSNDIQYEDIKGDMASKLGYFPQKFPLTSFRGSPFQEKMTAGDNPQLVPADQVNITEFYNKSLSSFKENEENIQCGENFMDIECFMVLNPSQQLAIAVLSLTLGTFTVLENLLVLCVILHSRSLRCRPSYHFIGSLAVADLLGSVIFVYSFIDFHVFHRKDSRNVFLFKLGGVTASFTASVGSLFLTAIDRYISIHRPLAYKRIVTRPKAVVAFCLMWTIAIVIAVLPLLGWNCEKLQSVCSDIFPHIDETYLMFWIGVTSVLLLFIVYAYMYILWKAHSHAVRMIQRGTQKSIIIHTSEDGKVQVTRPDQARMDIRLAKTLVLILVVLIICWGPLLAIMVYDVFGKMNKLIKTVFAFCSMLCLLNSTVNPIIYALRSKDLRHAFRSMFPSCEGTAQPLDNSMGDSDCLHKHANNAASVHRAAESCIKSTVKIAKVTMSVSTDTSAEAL
UniProt P18507, 40-475 limits assumed: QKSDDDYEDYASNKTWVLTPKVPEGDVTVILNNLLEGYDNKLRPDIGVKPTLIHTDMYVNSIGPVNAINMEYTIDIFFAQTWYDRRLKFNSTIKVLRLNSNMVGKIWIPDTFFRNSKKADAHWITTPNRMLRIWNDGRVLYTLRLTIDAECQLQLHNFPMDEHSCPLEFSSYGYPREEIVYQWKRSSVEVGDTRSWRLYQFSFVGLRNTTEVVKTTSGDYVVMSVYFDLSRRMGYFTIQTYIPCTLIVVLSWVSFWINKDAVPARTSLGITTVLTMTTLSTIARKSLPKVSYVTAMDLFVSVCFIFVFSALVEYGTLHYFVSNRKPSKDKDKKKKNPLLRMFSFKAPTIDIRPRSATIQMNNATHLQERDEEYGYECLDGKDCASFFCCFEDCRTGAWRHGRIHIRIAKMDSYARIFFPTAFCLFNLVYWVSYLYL
UniProt P47870, 25-512 limits assumed: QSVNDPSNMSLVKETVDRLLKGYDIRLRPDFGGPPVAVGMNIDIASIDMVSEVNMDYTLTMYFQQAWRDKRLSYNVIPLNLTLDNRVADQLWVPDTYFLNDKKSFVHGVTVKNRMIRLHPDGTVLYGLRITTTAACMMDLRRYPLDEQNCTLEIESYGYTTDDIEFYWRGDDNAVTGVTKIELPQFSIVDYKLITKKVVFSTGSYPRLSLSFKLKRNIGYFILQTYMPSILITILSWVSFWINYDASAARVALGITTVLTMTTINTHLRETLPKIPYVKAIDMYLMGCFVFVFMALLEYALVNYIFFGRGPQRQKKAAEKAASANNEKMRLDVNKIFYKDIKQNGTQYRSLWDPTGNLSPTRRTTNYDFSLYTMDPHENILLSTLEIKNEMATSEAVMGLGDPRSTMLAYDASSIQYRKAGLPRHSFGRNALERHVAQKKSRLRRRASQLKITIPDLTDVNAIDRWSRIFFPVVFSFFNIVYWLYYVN
UniProt P17787, 26-502 limits assumed: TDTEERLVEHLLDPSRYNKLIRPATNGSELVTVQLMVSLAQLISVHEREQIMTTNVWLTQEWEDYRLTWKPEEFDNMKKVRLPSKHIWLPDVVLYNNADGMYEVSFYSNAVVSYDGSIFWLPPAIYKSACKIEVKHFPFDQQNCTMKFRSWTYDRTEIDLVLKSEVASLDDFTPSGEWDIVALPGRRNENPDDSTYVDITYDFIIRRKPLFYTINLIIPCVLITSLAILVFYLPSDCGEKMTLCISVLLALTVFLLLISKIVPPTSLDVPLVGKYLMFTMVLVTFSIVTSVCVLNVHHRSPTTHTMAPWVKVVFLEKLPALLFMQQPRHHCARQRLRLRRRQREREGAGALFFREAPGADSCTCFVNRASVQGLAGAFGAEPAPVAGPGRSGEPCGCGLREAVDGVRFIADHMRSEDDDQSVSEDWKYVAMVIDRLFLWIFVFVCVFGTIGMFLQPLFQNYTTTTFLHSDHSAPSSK
UniProt P43681, 29-627 limits assumed: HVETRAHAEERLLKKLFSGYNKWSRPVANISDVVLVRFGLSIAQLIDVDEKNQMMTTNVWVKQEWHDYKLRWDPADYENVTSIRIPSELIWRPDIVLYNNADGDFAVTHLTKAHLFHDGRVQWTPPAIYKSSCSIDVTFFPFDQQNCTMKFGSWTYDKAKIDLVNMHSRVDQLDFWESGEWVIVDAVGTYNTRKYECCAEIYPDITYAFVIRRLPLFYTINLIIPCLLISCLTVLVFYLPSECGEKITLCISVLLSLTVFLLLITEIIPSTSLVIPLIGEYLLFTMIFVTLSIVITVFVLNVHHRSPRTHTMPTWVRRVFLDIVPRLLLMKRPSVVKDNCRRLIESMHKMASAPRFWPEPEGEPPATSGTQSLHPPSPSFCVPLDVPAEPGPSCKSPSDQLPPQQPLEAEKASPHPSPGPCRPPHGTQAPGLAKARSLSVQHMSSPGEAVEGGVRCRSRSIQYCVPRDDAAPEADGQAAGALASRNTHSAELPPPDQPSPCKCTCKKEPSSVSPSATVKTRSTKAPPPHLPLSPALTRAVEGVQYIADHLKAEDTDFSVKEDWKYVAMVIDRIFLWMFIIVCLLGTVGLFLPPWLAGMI
UniProt P28335, 33-458 limits assumed: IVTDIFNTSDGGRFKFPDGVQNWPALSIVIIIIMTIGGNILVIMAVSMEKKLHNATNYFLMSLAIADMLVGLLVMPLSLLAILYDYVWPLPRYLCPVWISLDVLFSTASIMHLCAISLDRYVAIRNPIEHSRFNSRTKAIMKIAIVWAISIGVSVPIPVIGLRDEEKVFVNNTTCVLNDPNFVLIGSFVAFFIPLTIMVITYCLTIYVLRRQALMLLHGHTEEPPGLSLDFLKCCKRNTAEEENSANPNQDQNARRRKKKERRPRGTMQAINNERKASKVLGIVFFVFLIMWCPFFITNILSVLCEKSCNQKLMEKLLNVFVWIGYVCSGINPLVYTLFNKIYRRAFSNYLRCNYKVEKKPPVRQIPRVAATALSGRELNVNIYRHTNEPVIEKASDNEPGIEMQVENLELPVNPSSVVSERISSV
UniProt P37288, whole entry: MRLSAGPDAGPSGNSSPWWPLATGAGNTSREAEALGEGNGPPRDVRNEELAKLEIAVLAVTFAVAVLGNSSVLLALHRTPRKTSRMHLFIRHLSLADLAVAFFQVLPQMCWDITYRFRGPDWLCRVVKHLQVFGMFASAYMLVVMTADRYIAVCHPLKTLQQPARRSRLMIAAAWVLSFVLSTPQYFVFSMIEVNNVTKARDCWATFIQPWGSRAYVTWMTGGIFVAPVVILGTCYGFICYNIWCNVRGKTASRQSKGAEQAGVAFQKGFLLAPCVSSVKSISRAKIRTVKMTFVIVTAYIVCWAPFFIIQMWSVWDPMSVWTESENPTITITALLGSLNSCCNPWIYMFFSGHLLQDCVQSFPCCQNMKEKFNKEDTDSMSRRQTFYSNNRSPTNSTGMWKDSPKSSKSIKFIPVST
UniProt P04150, whole entry: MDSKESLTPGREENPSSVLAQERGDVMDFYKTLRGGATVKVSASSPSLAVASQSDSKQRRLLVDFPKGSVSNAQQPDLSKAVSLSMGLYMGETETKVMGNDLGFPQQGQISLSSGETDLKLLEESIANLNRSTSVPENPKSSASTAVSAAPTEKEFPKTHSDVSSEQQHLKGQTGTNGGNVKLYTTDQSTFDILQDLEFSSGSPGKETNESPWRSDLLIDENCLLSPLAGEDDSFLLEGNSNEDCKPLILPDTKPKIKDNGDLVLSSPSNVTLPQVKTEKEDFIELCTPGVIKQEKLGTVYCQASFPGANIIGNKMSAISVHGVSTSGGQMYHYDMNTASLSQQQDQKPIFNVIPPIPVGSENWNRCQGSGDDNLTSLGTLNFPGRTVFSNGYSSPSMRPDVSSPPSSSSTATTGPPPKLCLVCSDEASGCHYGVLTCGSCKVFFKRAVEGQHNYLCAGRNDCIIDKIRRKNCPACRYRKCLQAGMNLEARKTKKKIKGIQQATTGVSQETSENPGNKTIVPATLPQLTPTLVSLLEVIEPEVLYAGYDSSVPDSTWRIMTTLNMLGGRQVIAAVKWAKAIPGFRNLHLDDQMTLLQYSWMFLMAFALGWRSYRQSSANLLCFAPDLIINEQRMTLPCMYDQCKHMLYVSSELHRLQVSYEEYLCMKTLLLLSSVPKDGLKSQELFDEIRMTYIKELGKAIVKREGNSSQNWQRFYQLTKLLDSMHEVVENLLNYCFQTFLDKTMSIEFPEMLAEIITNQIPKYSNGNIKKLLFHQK
UniProt P08912, whole entry: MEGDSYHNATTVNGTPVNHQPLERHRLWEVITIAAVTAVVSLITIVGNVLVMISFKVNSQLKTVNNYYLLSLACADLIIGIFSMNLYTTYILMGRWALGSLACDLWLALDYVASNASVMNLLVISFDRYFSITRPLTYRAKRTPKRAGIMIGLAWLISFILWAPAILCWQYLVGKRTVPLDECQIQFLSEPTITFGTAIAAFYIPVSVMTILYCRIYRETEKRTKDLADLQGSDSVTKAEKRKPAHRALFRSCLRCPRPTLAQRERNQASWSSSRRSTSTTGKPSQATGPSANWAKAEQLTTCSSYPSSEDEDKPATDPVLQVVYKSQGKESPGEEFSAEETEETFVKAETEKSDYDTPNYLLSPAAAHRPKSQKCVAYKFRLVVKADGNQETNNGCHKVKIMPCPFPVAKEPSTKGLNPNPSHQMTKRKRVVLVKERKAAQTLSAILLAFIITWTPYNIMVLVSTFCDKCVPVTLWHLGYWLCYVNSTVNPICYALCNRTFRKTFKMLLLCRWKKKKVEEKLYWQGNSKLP
UniProt P46098, 24-478 limits assumed: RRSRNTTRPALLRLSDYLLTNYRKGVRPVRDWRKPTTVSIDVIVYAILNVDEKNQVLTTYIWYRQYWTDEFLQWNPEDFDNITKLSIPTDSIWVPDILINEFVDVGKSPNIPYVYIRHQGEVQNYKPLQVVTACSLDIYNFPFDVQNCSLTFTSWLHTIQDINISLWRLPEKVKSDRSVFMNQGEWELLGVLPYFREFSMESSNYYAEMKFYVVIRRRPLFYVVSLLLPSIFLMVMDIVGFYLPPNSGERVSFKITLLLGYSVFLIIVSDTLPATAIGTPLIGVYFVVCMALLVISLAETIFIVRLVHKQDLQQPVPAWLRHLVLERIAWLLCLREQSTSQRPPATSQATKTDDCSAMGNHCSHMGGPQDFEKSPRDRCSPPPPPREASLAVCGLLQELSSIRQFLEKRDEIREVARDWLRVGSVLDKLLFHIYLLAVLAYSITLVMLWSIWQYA

What was measured:
Assay in all cases: Secondary pharmacology, radioligand binding
A1 adenosine receptor = A1 adenosine receptor (Homo sapiens, UniProt P30542)
α2C adrenoceptor = α2C adrenoceptor (Homo sapiens, UniProt P18825)
AT1 angiotensin receptor = AT1 angiotensin receptor (Homo sapiens, UniProt P30556)
D2l dopamine receptor = D2l dopamine receptor (Homo sapiens, UniProt P14416)
5-HT2B receptor = 5-HT2B receptor (Homo sapiens, UniProt P41595)
[1] = target: Dopamine transporter (DAT) (Homo sapiens, UniProt Q01959)
[2] = target: L-Type calcium channel (CaV1.2) (Phenylalkylamine) (Rattus norvegicus, UniProt P22002)
Retinoic acid receptor-α = Retinoic acid receptor-α (Homo sapiens, UniProt P10276)
ETA endothelin receptor = ETA endothelin receptor (Homo sapiens, UniProt P25101)
A2A adenosine receptor = A2A adenosine receptor (Homo sapiens, UniProt P29274)
MT2 melatonin receptor = MT2 melatonin receptor (Homo sapiens, UniProt P49286)
D1 dopamine receptor = D1 dopamine receptor (Homo sapiens, UniProt P21728)
β2 adrenoceptor = β2 adrenoceptor (Homo sapiens, UniProt P07550)
CB1 cannabinoid receptor = CB1 cannabinoid receptor (Homo sapiens, UniProt P21554)
Sigma σ1 Receptor = Sigma σ1 Receptor (Homo sapiens, UniProt Q99720)
[3] = target: Serotonin Transporter (SERT) (Homo sapiens, UniProt P31645)
B2 bradykinin receptor = B2 bradykinin receptor (Homo sapiens, UniProt P30411)
GABAAα1β2γ2 receptor = GABAAα1β2γ2 receptor (Homo sapiens, UniProt P14867+P18507+P47870)
GABAA receptor, BNZ site = system: GABAA receptor, BNZ site
α4 nicotinic receptor = α4 nicotinic receptor (Homo sapiens, UniProt P17787+P43681)
5-HT1A receptor = 5-HT1A receptor (Homo sapiens, UniProt P08908)
5-HT2C receptor = 5-HT2C receptor (Homo sapiens, UniProt P28335)
[4] = target: Peroxisome proliferator-activated receptor-γ (Homo sapiens, UniProt P37231)
TP prostanoid receptor = TP prostanoid receptor (Homo sapiens, UniProt P21731)
V1A vasopressin receptor = V1A vasopressin receptor (Homo sapiens, UniProt P37288)
[5] = target: Glucocorticoid Receptor NR3C1 (Homo sapiens, UniProt P04150)
δ opioid Receptor = δ opioid Receptor (Homo sapiens, UniProt P41143)
M5 muscarinic receptor = M5 muscarinic receptor (Homo sapiens, UniProt P08912)
[6] = target: SST4 somatostatin receptor (Homo sapiens, UniProt P31391)
D3 dopamine receptor = D3 dopamine receptor (Homo sapiens, UniProt P35462)
5-HT1D receptor = 5-HT1D receptor (Rattus norvegicus, UniProt P28565)
5-HT3A receptor = 5-HT3A receptor (Homo sapiens, UniProt P46098)

## Cc1nc(C(F)(F)F)c2c(C(N)=O)c(N)n(-c3c(C)ccc(O)c3C)c2n1 (single isomer, unassigned)
A1 adenosine receptor
  Pharmacological mode of action: Inactive
A1 adenosine receptor; read-out: Binding Ki
  Ki: > 100 µM
α2C adrenoceptor
  Pharmacological mode of action: Inactive
α2C adrenoceptor; read-out: Binding Ki
  Ki: > 100 µM
AT1 angiotensin receptor
  Pharmacological mode of action: Inactive
AT1 angiotensin receptor; read-out: Binding Ki
  Ki: > 100 µM
D2l dopamine receptor
  Pharmacological mode of action: Inactive
D2l dopamine receptor; read-out: Binding Ki
  Ki: > 100 µM
5-HT2B receptor
  Pharmacological mode of action: Inactive
5-HT2B receptor; read-out: Binding Ki
  Ki: > 100 µM
[1]
  Pharmacological mode of action: Inactive
[1]; read-out: Binding Ki
  Ki: > 100 µM
[2]
  Pharmacological mode of action: Inactive
[2]; read-out: Binding Ki
  Ki: > 100 µM
Retinoic acid receptor-α
  Pharmacological mode of action: Inactive
Retinoic acid receptor-α; read-out: Binding Ki
  Ki: > 100 µM
ETA endothelin receptor
  Pharmacological mode of action: Inactive
ETA endothelin receptor; read-out: Binding Ki
  Ki: > 100 µM
A2A adenosine receptor
  Pharmacological mode of action: Inactive
A2A adenosine receptor; read-out: Binding Ki
  Ki: > 100 µM
MT2 melatonin receptor
  Pharmacological mode of action: Inactive
MT2 melatonin receptor; read-out: Binding Ki
  Ki: > 100 µM
D1 dopamine receptor
  Pharmacological mode of action: Inactive
D1 dopamine receptor; read-out: Binding Ki
  Ki: > 100 µM
β2 adrenoceptor
  Pharmacological mode of action: Inactive
β2 adrenoceptor; read-out: Binding Ki
  Ki: > 100 µM
CB1 cannabinoid receptor
  Pharmacological mode of action: Inactive
CB1 cannabinoid receptor; read-out: Binding Ki
  Ki: > 100 µM
Sigma σ1 Receptor
  Pharmacological mode of action: Inactive
Sigma σ1 Receptor; read-out: Binding Ki
  Ki: > 100 µM
[3]
  Pharmacological mode of action: Inactive
[3]; read-out: Binding Ki
  Ki: > 100 µM
B2 bradykinin receptor
  Pharmacological mode of action: Inactive
B2 bradykinin receptor; read-out: Binding Ki
  Ki: > 100 µM
GABAAα1β2γ2 receptor
  Pharmacological mode of action: Inactive
GABAAα1β2γ2 receptor; read-out: Binding Ki
  Ki: > 100 µM
GABAA receptor, BNZ site
  Pharmacological mode of action: Inactive
GABAA receptor, BNZ site; read-out: Binding Ki
  Ki: > 100 µM
α4 nicotinic receptor
  Pharmacological mode of action: Inactive
α4 nicotinic receptor; read-out: Binding Ki
  Ki: > 100 µM
5-HT1A receptor
  Pharmacological mode of action: Inactive
5-HT1A receptor; read-out: Binding Ki
  Ki: > 100 µM
5-HT2C receptor
  Pharmacological mode of action: Inactive
5-HT2C receptor; read-out: Binding Ki
  Ki: > 100 µM
[4]
  Pharmacological mode of action: Inactive
[4]; read-out: Binding Ki
  Ki: > 100 µM
TP prostanoid receptor
  Pharmacological mode of action: Inactive
TP prostanoid receptor; read-out: Binding Ki
  Ki: > 30.1 µM
V1A vasopressin receptor
  Pharmacological mode of action: Inactive
V1A vasopressin receptor; read-out: Binding Ki
  Ki: > 100 µM
[5]
  Pharmacological mode of action: Inactive
[5]; read-out: Binding Ki
  Ki: > 100 µM
δ opioid Receptor
  Pharmacological mode of action: Inactive
δ opioid Receptor; read-out: Binding Ki
  Ki: > 100 µM
M5 muscarinic receptor
  Pharmacological mode of action: Inactive
M5 muscarinic receptor; read-out: Binding Ki
  Ki: > 100 µM
[6]
  Pharmacological mode of action: Inactive
[6]; read-out: Binding Ki
  Ki: > 100 µM
D3 dopamine receptor
  Pharmacological mode of action: Inactive
D3 dopamine receptor; read-out: Binding Ki
  Ki: > 100 µM
5-HT1D receptor
  Pharmacological mode of action: Inactive
5-HT1D receptor; read-out: Binding Ki
  Ki: > 100 µM
5-HT3A receptor
  Pharmacological mode of action: Inactive
5-HT3A receptor; read-out: Binding Ki
  Ki: > 100 µM
